The assay concerns the target Catenin beta-1 (Homo sapiens, UniProt P35222). Kind of assay: Binding affinity to beta catenin (unknown origin) assessed as dissociation constant by VP-ITC method.

The chains behind the UniProt entries cited, without tags or fusion partners.
UniProt P35222, whole entry: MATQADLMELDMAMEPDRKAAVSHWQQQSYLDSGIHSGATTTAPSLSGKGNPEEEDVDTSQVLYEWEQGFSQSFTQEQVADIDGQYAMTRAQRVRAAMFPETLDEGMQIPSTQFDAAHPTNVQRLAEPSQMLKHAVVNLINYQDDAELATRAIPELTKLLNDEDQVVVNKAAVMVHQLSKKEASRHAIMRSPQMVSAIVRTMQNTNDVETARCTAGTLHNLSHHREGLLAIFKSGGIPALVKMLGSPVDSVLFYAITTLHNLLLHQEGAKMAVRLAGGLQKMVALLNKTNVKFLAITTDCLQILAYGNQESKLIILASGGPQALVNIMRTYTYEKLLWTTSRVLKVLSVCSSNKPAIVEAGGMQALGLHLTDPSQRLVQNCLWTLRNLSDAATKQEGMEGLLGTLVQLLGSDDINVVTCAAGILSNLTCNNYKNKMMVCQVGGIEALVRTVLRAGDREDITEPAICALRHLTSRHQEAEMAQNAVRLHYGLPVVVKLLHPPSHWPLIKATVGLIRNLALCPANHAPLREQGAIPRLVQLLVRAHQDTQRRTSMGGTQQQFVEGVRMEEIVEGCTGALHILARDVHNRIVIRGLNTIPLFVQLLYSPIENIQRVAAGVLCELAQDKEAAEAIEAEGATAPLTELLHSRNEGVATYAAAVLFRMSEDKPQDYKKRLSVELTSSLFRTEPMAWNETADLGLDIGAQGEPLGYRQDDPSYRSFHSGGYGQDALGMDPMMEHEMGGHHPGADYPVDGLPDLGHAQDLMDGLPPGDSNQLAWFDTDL

SMILES strings stand for the structures.

The results in this text go back to ChEMBL document CHEMBL5104113, “Biophysical Survey of Small-Molecule β-Catenin Inhibitors: A Cautionary Tale” (J Med Chem, 2022).

What is called Kd is the concentration at which binding is half-saturated. `O=C(O)CC[C@H](NC(=O)[C@H](CC(=O)O)NC(=O)[C@H](Cc1ccc2ccccc2c1)NC(=O)c1cc2cc(Cl)ccc2[nH]1)C(=O)Nc1ccc(OC(F)(F)F)cc1`: the dissociation constant (Kd) was 420 nM.
